These are literature values, as cited in US8962808B2, “EGFR-related polypeptides and methods of use” (The Research Foundation for the State University of New York, priority 2010, dated 2015).

Series [1] concerns cancer cells with EGFRvIII expression. The note with it: literature reports; cited from earlier work.
For series [2], the system named is advanced stage HNSCC. The note with it: phase III; cited from earlier work.

On to cetuximab, for which, in series [1], the “sensitivity of cancer cells with EGFRvIII expression” value is “not as sensitive”. Also, in series [2], the “improvement of overall survival at 3 years” value is reported as 10%, the local regional control entry is “improved” and the progression-free survival result is given as “significantly prolonged”.
